Test results as given in PubChem BioAssay AID940 (Emory University Molecular Libraries Screening Center, 2007).
Where “and” joins values, the source holds several entries; their conditions need not be identical. Equal values may be shown once. The entries are a selection whose mix differs from that of the whole data set. Calls of active or inactive are those of the source.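 How the source made its calls: active means compounds whose cAMP rise, as percent of the full-agonist control response, exceeds 60; inactive means the rest.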

Chains of the proteins cited; added tags and fusions are not shown. Lines headed by an entry give the natural chain unless they say otherwise; changes in a name come on top.
UniProt P43116: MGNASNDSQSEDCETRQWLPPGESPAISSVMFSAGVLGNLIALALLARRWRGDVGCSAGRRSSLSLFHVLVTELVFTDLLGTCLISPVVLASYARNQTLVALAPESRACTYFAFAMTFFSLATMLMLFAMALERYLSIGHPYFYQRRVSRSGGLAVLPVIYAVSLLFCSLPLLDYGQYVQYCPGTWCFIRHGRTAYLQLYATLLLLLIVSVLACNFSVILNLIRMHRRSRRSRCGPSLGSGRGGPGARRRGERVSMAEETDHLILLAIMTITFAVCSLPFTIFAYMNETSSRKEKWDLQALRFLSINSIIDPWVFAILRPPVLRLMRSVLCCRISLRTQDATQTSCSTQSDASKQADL

Target: Prostaglandin E2 receptor EP2 subtype (Homo sapiens) (UniProt P43116)
Test: EP2 receptor modulators, cAMP readout, primary screen, cell-based, HTRF cAMP, PGE2 stimulation (AID 940);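 further: rat C6 glioma line stably carrying human EP2 under a CMV promoter; the protocol text gives 20 µM as final concentration; 100% = response of wells given 1 µM PGE2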
Settings: EP2-expressing cells, cAMP HTRF FRET, PGE2 co-stimulation; at 25 µM; hits give high values

Row | SMILES | induction
1 | Cc1c2non([O-])c-2c(C)[n+](=O)[n+]1[O-] | inactive: -36.8%
2 | Oc1ccccc1CNc1ccccn1 | inactive: -8.87%
3 | NCC[C@@H](N)CSP(=O)(O)O | inactive: 9.65%
4 | CC(=O)Nc1ccc([As](=O)(O)O)cc1 | inactive: -15.3%
5 | O=C(O)c1ccccc1[As](=O)(O)O | inactive: 30.1%
6 | O=P(Nc1nc2ccc(Cl)cc2s1)(c1ccccc1)c1ccccc1 | inactive: -11.2%
7 | Cc1ccc(NP(=O)(Oc2ccccc2F)Oc2ccccc2F)nc1 | inactive: 3.91%
8 | CN(C(=O)Cc1ccc(Cl)c(Cl)c1)[C@H]1CCCC[C@@H]1N1CCCC1 | inactive: -16.4% and inactive: 0.58%
9 | Cc1cc(SC(NC(=O)c2ccc(F)cc2)C(Cl)(Cl)Cl)ncn1 (stereo unspecified) | inactive: 43.7%
10 | CCOP(=O)(Nc1ccccc1)OCC | inactive: 16.3% and inactive: 6.02%
11 | [N-]=[N+]=NCC(O)CN=[N+]=[N-] (stereo unspecified) | inactive: 33.8%
12 | CCN(N=Nc1nonc1N)c1nonc1N | inactive: -5.22%
13 | C(Cc1nn[nH]n1)c1nn[nH]n1 | inactive: 21.7%
14 | Nc1cccc2ccc([As](=O)(O)O)cc12 | inactive: -36.2%
15 | CCNC(=S)/N=C(\N)N[N+](=O)[O-] | inactive: 17.4%
16 | O=C(NC1CCS(=O)(=O)C1)NP(=S)(Oc1ccccc1)Oc1ccccc1 (stereo unspecified) | inactive: 29.8%
17 | CCOC(=O)NC(Sc1ccccc1)C(Cl)(Cl)Cl (stereo unspecified) | inactive: -2.25%
18 | Cc1ccc(NP(=O)(Oc2cccc(C)c2)Oc2cccc(C)c2)nc1 | inactive: -32.8%
19 | c1ccc(-c2nn[nH]n2)c(-c2nn[nH]n2)c1 | inactive: -0.01%
20 | O=c1[nH]cc(S(=O)(=O)F)c(=O)[nH]1 | inactive: 7.59%
21 | Cc1ccc(OP(=O)(Nc2ccccn2)Oc2ccc(C)cc2)cc1 | inactive: -49.8%
22 | CC(=O)NC(SC(=S)N(CC(C)C)CC(C)C)C(Cl)(Cl)Cl (stereo unspecified) | inactive: 47.9%
23 | COC(=O)c1cc2c(s1)N=C(c1ccccc1)N(C)P2(=O)N1CCOCC1 (stereo unspecified) | inactive: 18.7%
24 | CCC(=O)N1C2C3N(C(=O)CC)C1C1N(C(=O)CC)C(C(N1C(=O)CC)N3C(=O)CC)N2C(=O)CC | inactive: 8.44%
25 | CN(C(=O)Cc1ccc(Cl)c(Cl)c1)[C@@H]1CCCC[C@@H]1N1CCCC1 | inactive: 22%
26 | O=c1c2cc([N+](=O)[O-])ccc2[nH]c2c([N+](=O)[O-])cc([N+](=O)[O-])cc12 | inactive: -77.1%

Row | SMILES | induction
27 | CN(C)C(=O)Oc1noc2ccccc12 | inactive: 4.48%
28 | Cc1ccccc1OP(=O)(Nc1ccccn1)Oc1ccccc1C | inactive: 26.1%
29 | CCOc1ccc(C2=NCC(CBr)S2)cc1 (stereo unspecified) | inactive: -32.3%
30 | O=P1(Nc2nc3ccc(Cl)cc3s2)COc2ccccc2O1 (stereo unspecified) | inactive: -36.4%
31 | CC(C)(C)C(=O)NC(Sc1ccccc1)C(Cl)(Cl)Cl (stereo unspecified) | inactive: 39.1%
32 | C[C@H]1OP(=O)(Oc2ccccc2)C[C@@H]2O[C@@H]21 (stereo partly specified) | inactive: -5.67%
33 | C[C@@H]1C=CCP(=O)(Oc2ccccc2)O1 (stereo partly specified) | inactive: 10%
34 | CC(=O)Nc1ccc(Oc2c([N+](=O)[O-])cc([N+](=O)[O-])cc2[N+](=O)[O-])cc1 | inactive: 12.1%
35 | CC(=O)Nc1ccc([As](=O)(O)O)c(O)c1 | inactive: -11.8%
36 | CC(C)C(=O)NC(Sc1ccccc1)C(Cl)(Cl)Cl (stereo unspecified) | inactive: 23.5%
37 | O=P(Nc1nccs1)(c1ccccc1)c1ccccc1 | inactive: -2.07%
38 | c1nnnn1CCn1cnnn1 | inactive: -4.13%
39 | CN1CCC[C@H](OC(=O)C(c2ccccc2)c2ccccc2)C1 | inactive: 18.1%
40 | COc1ccc(/C=C2/C(=O)NC(=O)N(Cc3ccco3)C2=O)c(OC)c1 | inactive: -70.2%
41 | C[C@@H](O)COc1ccc([As](=O)(O)O)cc1N | inactive: 25.9%
42 | O=P(Nc1ccccn1)(c1ccc(Br)cc1)c1ccc(Br)cc1 | inactive: 0.42%
43 | C[C@H]1OP(=O)(Oc2ccccc2)[C@H](O)[C@H](O)[C@H]1N=[N+]=[N-] (stereo partly specified) | inactive: -8.25%
44 | O=P(Nc1nc2ccccc2s1)(c1ccccc1)c1ccccc1 | inactive: -30.5%
45 | [N-]=[N+]=Nc1ccc([As](=O)(O)O)cc1 | inactive: 23.2%
46 | O=[N+]([O-])c1ncn(CCn2cnc([N+](=O)[O-])n2)n1 | inactive: 18.6%
47 | CC(=O)NC(SC(=S)N(C)C)C(Cl)(Cl)Cl (stereo unspecified) | inactive: 29.2%
48 | O=[As](O)(c1ccccc1)c1ccc(O)cc1 | inactive: -31.7%
49 | C(Cc1nn[nH]n1)Cc1nn[nH]n1 | inactive: 41.3%
50 | Nc1ccc([As](=O)(O)c2ccc([N+](=O)[O-])cc2)cc1 | inactive: 19.8%
51 | O=C(OC1CN2CCC1CC2)c1cccc(Cl)c1 (stereo unspecified) | inactive: 20.1%
